US8299096B2, “Method for treating pulmonary diseases using rho kinase inhibitor compounds” (priority 2008, dated 2012)

Test system: LPS-stimulated human monocytes
Assay: Human monocyte cytokine secretion assay (LPS-stimulated)
Format: cell-based
Conditions: potency determinations

| Structure (SMILES) | Secretion of IL-1β, TNF-α and IL-9 from LPS-stimulated human monocytes |
| --- | --- |
| NC(=O)Cn1ccc2cc(CN3CC[C@@H](Nc4cccc5cnccc45)C3)ccc21 [Compound 2.059] | dose-dependently reduced |
| OCCn1ccc2cc(CN3CC[C@@H](Nc4cccc5cnccc45)C3)ccc21 [Compound 2.066] | dose-dependently reduced |
